Measured values published in patent US5470951A, “Peptides for antagonizing the effects of amyloid βprotein” (City of Hope, priority 1993, dated 1995).
Where “and” joins values, the source holds several entries; their conditions need not be identical. Equal entries are not always repeated.

Key:
[1] = reference 25; cited from earlier work
[2] = test system: amnestic effects of β-(12-28) on retention of FAAT; experiment: Blocking of amnestic effect of β-(12-28) on retention of FAAT by ICV co-administered peptides; format: in vivo, CD-1 male mice; settings: β-(12-28) alone, 6 nmol ICV, groups of ten mice; vehicle alone 6.85 ± 0.20
Description: Test Animals. After one week in the laboratory, CD-1 male mice obtained from Charles River Breeding Laboratories were caged individually 24-28 hours prior to training and remained singly housed until retention was tested one week later. Animal rooms were on a 12-hour light/dark cycle with lights going on at the hour of 0600. Median body weight was 35 g, with a range of 33-38 g. Mice were assigned randomly to groups of ten in the experiments reported in Table 1, groups of 14 in the experiments reported in Table 2, and groups of 15 in FIG. 1 and were trained and tested between the hours of 0700 and 1500.
Peptides were dissolved in 8% vol/vol dimethyl sulfoxide and diluted to a final concentration of 0.001% dimethyl sulfoxide in saline. Upon testing for retention of FAAT after receiving post-training ICV administration of 2 μl of the above vehicle the mean numbers of trials to criterion±standard error of the mean (SEM for well trained mice and weakly trained mice were 6.85±0.20 and 9.07±0.25, respectively (see the paragraph below for definition of the two training paradigms).
Apparatus, training and Testing Procedures. The T-maze used for footshock active avoidance training (FAAT) consisted of a black plastic alley (46 cm long) with a start box at one end and two goal boxes (17.5 cm long) at the other. […]

β-(12-28): a peptide homologous to Aβ that is as potently amnestic as Aβ and shows amyloid-like aggregation
amnestic potency compared with Aβ [1]: as potently amnestic as Aβ
Trial to criterion, no (mean + SEM) [2]: 9.62+0.30 and 9.62 ± 0.30
